For data set [1] the following is noted: diabetic pigs, co-formulation (1:6) containing CB[7]-PEG at 10-13 meals over six weeks.
The conditions of data set [2]: in humans; cited from earlier work.
The conditions of data set [3]: in pigs; cited from earlier work.
Where [4] appears, read: healthy Sprague Dawley rats, 0.2 mg/kg daily for six weeks.

Where two headings read alike, the source gives them in different places.

The source of these data is patent US20220125886A1, “CO-FORMULATIONS OF AMYLIN ANALOGUES WITH INSULIN ANALOGUES FOR TREATMENT OF DIABETES” (The Board of Trustees of the Leland Stanford Junior …, priority 2019, published 2022).

Take “cucurbit[7]uril (CB[7])-poly(ethylene glycol) (PEG) conjugate [CB[7]-PEG]”: in data set [1], the ALT result is on record as “within the normal range for healthy pigs”, the AST result is “within the normal range for healthy pigs”, the BUN result is “within the normal range for healthy pigs” and the bilirubin result is on record as “within the normal range for healthy pigs”. Further, the creatinine result in data set [1] (Week 0 vs Week 6 p=0.001) is recorded as “within the normal range for healthy pigs”. Further, for the setting “end of six weeks, single-blind assessment”, the “liver and kidney histology (H&E, Masson's Trichrome), treated vs untreated” value is given as “no differences in fat content or fibrosis”. For the same substance, under setting [4], the ALP result is “within the range of healthy rats”, the AST entry is “within the range of healthy rats”, the BUN entry is recorded as “within the range of healthy rats” and the creatine entry is listed as “within the range of healthy rats”. The ALT result (healthy Sprague Dawley rats, 0.2 mg/kg daily for six weeks, days 14, 28, 42) is “within the range of healthy rats”.
As for insulin, the “insulin duration of action” value is 4 h in data set [2] and 2 h in data set [3].
